## scFv variants of Ab-14 (heavy chain) against a SARS-CoV-2 spike peptide

Data: MIT Lincoln Laboratory AlphaSeq set, Engelhart et al. 2022, doi:10.1038/s41597-022-01779-4, as distributed in FLAb.

All variants were tested on one target, the spike HR2 peptide PDVDLGDISGINAS (SARS-CoV-2).

The variants keep the light chain, the linker and the frameworks of Ab-14 (scFv order VH, a (GGGGS)3 linker, VL).
VH: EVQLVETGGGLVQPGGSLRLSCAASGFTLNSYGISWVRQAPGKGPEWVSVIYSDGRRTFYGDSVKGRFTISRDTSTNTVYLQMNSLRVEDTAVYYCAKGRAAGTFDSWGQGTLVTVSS
VL: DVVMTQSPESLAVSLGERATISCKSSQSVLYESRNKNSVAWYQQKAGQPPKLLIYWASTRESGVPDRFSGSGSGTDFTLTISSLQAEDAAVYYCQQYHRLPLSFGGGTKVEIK

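The parent was found by panning a naive human phage display library on the peptide. Variants in AAYL49 differ from the parent at up to three CDR positions; double and triple changes were sampled at random. Affinity was read by AlphaSeq, a pooled yeast mating assay with surface-displayed partners. After mating in shaken culture at 30 °C for 16 h, diploids were selected and their barcode pairs sequenced. Read counts were normalised to the haploid input and turned into Kd by a linear fit to BCL2-family pairs of known affinity, for each replicate. Mating was done three times.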

Each variant is given by its three heavy chain CDRs, as the data file delimits them; those of the parent are GFTLNSYGIS, VIYSDGRRTFYGDSVK, GRAAGTFDS. Numbers give log10(Kd / nM), so 0 is 1 nM and 3 is 1 µM. Smaller is tighter. A mean of the replicates is given; it leaves out those without a signal. A pair that was not seen in that replicate is written "nd"; this usually means weak binding, but a binder can also be missed.

CDR-H1,CDR-H2,CDR-H3,log10 Kd (nM) by replicate,"log10 Kd (nM), mean",signal with controls
GFTLNSYGIS,VSYSKGRRTFYGDSVK,GRAAGTFDS,nd / nd / nd,nd,2 of 9 (2.64)
GFILNSYGDS,VIYSDGRRTFYGDSVK,GRAAPTFDS,4.35 / 3.97 / nd,4.16,1 of 9 (3.52)
GFTLNSYSIS,VIYSDGLRTFYGDSVK,KRAAGTFDS,4.21 / nd / 5.21,4.71,8 of 9 (4.54)
GFTLNSYGIS,VIYYDGRRTFYGGSVK,GRAAGTFAS,nd / 3.49 / nd,3.49,0 of 9
GFRLNSYGIS,VIYSDGRRTFEGDSVK,GRKAGTFDS,nd / nd / nd,nd,0 of 9
GFTLNSYGIS,VIYSDGRWTFYGDSVM,GRAAGIFDS,nd / nd / nd,nd,1 of 9 (3.44)
GFTLESYGIS,VIYSAGRRTFYGDSVK,GRAAGTFDS,nd / nd / 3.93,3.93,0 of 9
GFTLNSYTVS,VIYPDGRRTFYGDSVK,GRAAGTFDS,nd / nd / nd,nd,0 of 9
GNTLNSYGIS,VIYSDGRRTFYGDSVK,GNAARTFDS,3.23 / 3.01 / 4.11,3.45,5 of 9 (4.50)
GFTFNSYGIL,VIYSDGGRTFYGDSVK,GRAAGTFDS,nd / nd / nd,nd,0 of 9
GFTLNSYGIS,VGYSDGRRTFYGDIVK,GRAAGTFDN,3.83 / 3.95 / 3.72,3.84,5 of 9 (3.87)
GFTLNSYGIS,VIYHDGRRTFPGDSVK,GRAAGTFGS,nd / nd / nd,nd,2 of 9 (5.59)
GGTLNSYGIS,VIHSDGRRTFYGDSVK,GRAAGTSDS,5.51 / nd / nd,5.51,1 of 9 (3.75)
GFTLNSYGIS,VIGSDGRHTFYGDSVK,GRAAGTWDS,nd / nd / nd,nd,0 of 9
GFTLNSNGIS,VIYSDGRRTFHGDSVK,GRAAGTQDS,nd / nd / nd,nd,0 of 9
GFTYNSYGIQ,VIYSDGRRTFYGDSVK,GRAAGTFQS,4.96 / nd / nd,4.96,0 of 9
GFTLNSYGIS,VPYSDGRRTFYGDSVK,GRAKGTFRS,nd / nd / nd,nd,1 of 9 (2.15)
GFTLNSYGIQ,VIYSDPRRTFYGDSVY,GRAAGTFDS,nd / nd / nd,nd,1 of 9 (2.97)
GFTLNSYGIS,VIYSDGRRTFKGDSGK,GRAAPTFDS,nd / nd / nd,nd,1 of 9 (4.69)
GFTLNSYHIS,VIYSDRRRIFYGDSVK,GRAAGTFDS,nd / nd / nd,nd,2 of 9 (4.06)
GFTLNSYGIS,VIYSDGRRTAYDDSEK,GRAAGTFDS,nd / nd / nd,nd,0 of 9
GFTPNSYFIS,GIYSDGRRTFYGDSVK,GRAAGTFDS,nd / nd / 4.84,4.84,0 of 9
GFTLNSYGFS,VIYSDGRRTFYGDSVH,GRAARTFDS,nd / nd / nd,nd,4 of 9 (3.91)
GFTLNSYGIS,VIYSDCRITFYGDSVK,GRAAGTFDN,nd / nd / nd,nd,0 of 9
GFTLNSYGIS,FIYSDGRRRFYGDSVK,GQAAGTFDS,nd / nd / nd,nd,0 of 9
LFTLNRYGIS,VIYSDGRRTFYGDKVK,GRAAGTFDS,0.60 / 0.95 / 0.84,0.80,0 of 9
GFTLWSYGIS,VIYSDGRRTFYGDSVK,GRAWYTFDS,nd / nd / nd,nd,0 of 9
GFHLNSYGIS,VIYSDGRRTFYGDSGK,GRAAHTFDS,nd / 2.05 / 2.48,2.26,0 of 9
GFTLNSYGIS,VIYSDGRRGAYGDSVK,GRAAGIFDS,2.24 / 2.68 / nd,2.46,0 of 9
GFTLNQYGIS,VIYSDGRWTFYGDSVK,GCAAGTFDS,6.07 / nd / nd,6.07,1 of 9 (4.19)
GFTLNSYGIN,VITSDGRRTFYGDSVK,GRAHGTFDS,2.93 / nd / nd,2.93,0 of 9
GFTLASYGDS,VIYSDGRRTFYGDSVK,GRRAGTFDS,nd / 4.00 / 3.69,3.84,3 of 9 (4.31)
GFTLNSYGIS,VIYSDLRRTFYGDSRK,GRAAGTFDA,nd / 4.21 / 3.44,3.82,0 of 9
GFTLNSYGIS,VIYSDGRRTFYGDSVK,GRAYGTFDS,0.47 / 0.32 / 0.32,0.37,0 of 9
GFTLISYGIS,VIYSDGRRGLYGDSVK,GRAAGTFDS,nd / nd / nd,nd,0 of 9
GFTLNSYGIS,VIYSDGRRTDYGDIVK,GRAAGTFDS,nd / nd / nd,nd,0 of 9

Repeated from above, the 3 best binders with a signal in all replicates:

CDR-H1	CDR-H2	CDR-H3	log10 Kd (nM) by replicate	log10 Kd (nM), mean	signal with controls
GFTLNSYGIS	VIYSDGRRTFYGDSVK	GRAYGTFDS	0.47 / 0.32 / 0.32	0.37	0 of 9
LFTLNRYGIS	VIYSDGRRTFYGDKVK	GRAAGTFDS	0.60 / 0.95 / 0.84	0.80	0 of 9
GNTLNSYGIS	VIYSDGRRTFYGDSVK	GNAARTFDS	3.23 / 3.01 / 4.11	3.45	5 of 9 (4.50)

Empty control strains, which show no peptide, gave a signal in 15% of pairings with library AAYL49; the median was 4.06 and 95% of these signals were weaker than 2.83. No background was subtracted. The control count says in how many pairings with the empty strains this scFv gave a signal, with their mean in brackets. In this assay the parent's reference entry averaged 0.65; its copy inside this library read 4.11 (one replicate of three).